Assays:
healthy volunteers [1] = test: Phase 1 multiple-ascending-dose (MAD) study, safety; details: 0.6-6 mg once a day 7 d
volunteers with CUD = test: Phase 2a study, safety; format: in vivo, human; details: n = 29
Excerpt: Data from the first dose level were reviewed by the Data Safety Monitoring Board before ascending to the next dose level.
On day 6 of each period, before discharge from the research center, participants had sitting blood pressure and pulse rate measurements, clinical laboratory tests (chemistry, hematology and urinalysis) and body weight taken. The study start date was 23 October 2018; primary completion date was 31 July 2020; and actual study completion date was 1 January 2021. After the second study phase, participants were contacted 28 d after discharge so that we could inquire about the occurrence of any serious AEs (including pregnancies) that may have occurred since leaving the research site.

healthy volunteers [2] = test: Phase 1 single-ascending-dose (SAD) study, safety; details: 0.2-6 mg single dose

Measured: safety and tolerability

COc1ccc(CO[C@H]2CC[C@@]3(C)C(=CC[C@H]4[C@@H]5CC[C@H](C(C)=O)[C@@]5(C)CC[C@@H]43)C2)cc1 [AEF0117, 3β-(4-methoxybenzyloxy)pregn-5-en-20-one]
safe and well tolerated: all assays above

— publication PMC10287566, “Signaling-specific inhibition of the CB1 receptor for cannabis use disorder: phase 1 and phase 2a randomized trials” (Nature Medicine, 2023)
